ChEMBL document CHEMBL4715748, “Synthesis and biological investigation of new equatorial (β) stereoisomers of 3-aminotropane arylamides with atypical antipsychotic profile” (Bioorg Med Chem, 2016)

Amino acid sequences for entries named in this document (tags omitted).
UniProt P19327, whole entry: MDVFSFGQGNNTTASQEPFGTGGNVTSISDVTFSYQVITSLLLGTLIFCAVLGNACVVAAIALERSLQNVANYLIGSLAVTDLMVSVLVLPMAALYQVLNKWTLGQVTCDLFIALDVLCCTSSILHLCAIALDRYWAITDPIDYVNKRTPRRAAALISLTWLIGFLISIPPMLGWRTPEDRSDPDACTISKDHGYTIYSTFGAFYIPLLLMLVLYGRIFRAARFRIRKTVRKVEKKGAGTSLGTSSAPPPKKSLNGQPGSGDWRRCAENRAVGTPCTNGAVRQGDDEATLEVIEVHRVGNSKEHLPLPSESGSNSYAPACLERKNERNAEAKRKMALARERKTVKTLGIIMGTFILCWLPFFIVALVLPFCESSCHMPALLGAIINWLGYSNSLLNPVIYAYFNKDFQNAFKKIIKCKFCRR

Molecular target: 5-hydroxytryptamine receptor 1A (Rattus norvegicus, UniProt P19327)
Assay: Displacement of [3H]-8-OH-DPAT from rat cerebral cortex 5HT1A receptor measured after 15 mins by liquid scintillation counter method

Q: Which Ki does the source give for NCCc1c[nH]c2ccc(O)cc12 [SEROTONIN] here?
A: The Ki was 2.3 nM.
